The text below walks through data of paper PMC9378504 (Journal of medicinal chemistry, 2022).

What all share (format): cell-based, Human
In assay [1] the test system is GSPT1. As to the kind of experiment: Western blotting of GSPT1 protein level in KMS11 cells. The following applies: 2.5 μM, 72 h. A general note: A western blot detects proteins with antibodies after separation by electrophoresis.
Assay [2] deals with GSPT1. As to the kind of experiment: Western blotting of GSPT1 protein level in H929 cells. The note with it: 2.5 μM, 72 h.
The next assay concerns KMS11 cells. As to the kind of experiment: Cell growth inhibition assay in KMS11 cells. The following applies: 2.5 μM, 8 days.
Another assay relates to H929 cells. The experiment in a line: Cell growth inhibition assay in H929 cells. The note with it: 2.5 μM, 8 days.

Turning to `O=C1COc2cc(C(=O)N(Cc3ccc(C(=O)Nc4ccncn4)cc3)C3CC3)ccc2N1` [UNC6934, reference compound], the GSPT1 degradation entry in the assay on GSPT1 [1] and in the assay on GSPT1 [2] was “did not display any degradation effect” each time. The Cell growth inhibition entry with KMS11 cells and in the assay on H929 cells was “showed little effect on cell growth inhibition” throughout.
